Laboratory results taken from paper PMC10815238, “New N-Terminal Fatty-Acid-Modified Melittin Analogs with Potent Biological Activity” (International Journal of Molecular Sciences, 2024).

Key:
[1] = system: Escherichia coli (E. coli) ATCC 25922; assay type: cell-based; conditions: NB medium, 37 °C, 18 h, three independent measurements
Protocol: (§1) MIC was determined using the broth microdilution method with minor modification. In brief, bacteria (S. aureus ATCC 43300, E. faecalis ATCC 29212, E. coli ATCC 25922, P. aeruginosa ATCC 27853, L. monocytogenes CVCC 3764, B. cereus CVCC 4101, S. Castellani CGMCC 1.1869, and the multidrug-resistant E. coli strain) were cultured in nutrient broth (NB) medium (Macklin, Shanghai, China) to the logarithmic phase and diluted to 1 × 10^6 colony forming units (CFUs)/mL. The MDLs were dissolved to a final concentration of 256~0.25 μg/mL in NB medium using two-fold dilutions. A total of 50 μL of different concentrations of the MDL solutions and an equal volume of bacterial suspension were added to a 96-well plate, which was then incubated at 37 °C for 18 h. The minimum concentrations of the MDLs with no visible growth of bacteria were defined as the corresponding MICs. Media containing bacteria without the MDLs were set as the negative control. Each measurement was performed independently three times.

[2] = system: Staphylococcus aureus (S. aureus) ATCC 43300; assay type: cell-based; conditions: NB medium, 37 °C, 18 h, three independent measurements
Protocol: as §1

For `CC[C@H](C)[C@H](NC(=O)CN)C(=O)NCC(=O)N[C@@H](C)C(=O)N[C@H](C(=O)N[C@@H](CC(C)C)C(=O)N[C@@H](CCCCN)C(=O)N[C@H](C(=O)N[C@@H](CC(C)C)C(=O)N[C@H](C(=O)N[C@H](C(=O)NCC(=O)N[C@@H](CC(C)C)C(=O)N1CCC[C@H]1C(=O)N[C@@H](C)C(=O)N[C@@H](CC(C)C)C(=O)N[C@H](C(=O)N[C@@H](CO)C(=O)N[C@@H](Cc1c[nH]c2ccccc12)C(=O)N[C@H](C(=O)N[C@@H](CCCCN)C(=O)N[C@@H](CCCNC(=N)N)C(=O)N[C@@H](CCCCN)C(=O)N[C@@H](CCCNC(=N)N)C(=O)N[C@@H](CCC(N)=O)C(=O)N[C@@H](CCC(N)=O)C(N)=O)[C@@H](C)CC)[C@@H](C)CC)[C@@H](C)O)[C@@H](C)O)C(C)C)C(C)C` [Mel, Melittin], the MIC [1] was 32 µg/mL (≈ 11.2 µM) and the MIC [2] was 8 µg/mL (≈ 2.81 µM).

Values after ≈ are worked out from the molar mass of the structure shown.
